Earlier results as cited in PMC8437142 (The Journal of physiology, 2021).

What was measured:
[1] = ref Hutchinson et al., 2008a; cited from earlier work
[2] = tested on: mu opioid receptors; conditions: at the dose studied (4 mg/kg s.c.); ref Hutchinson et al., 2008a; cited from earlier work

Compound: CN1CC[C@]23c4c5ccc(O)c4O[C@H]2[C@@H](O)C=C[C@H]3[C@H]1C5 [Morphine, Morphine sulfate]
- time to reach significant blood concentrations [1]: ~ 15 minutes
- duration of mu opioid receptor agonism [2]: ~ 2 hours

Where a name gives a salt, the structure may show the parent alone.
